Results: PubChem BioAssay (NCATS)
Only a part is listed here, and it is no random draw. Results filed as inconclusive are left out. Activity calls are given as the source filed them. The call rests on the fitted dose curve; in most records, active means well fitted cell-killing curve with a large enough effect; inconclusive means small, poorly fitted or top-dose-only effect, or effect the other way; inactive means no such curve, though single readings can be large or run the other way.

How the values were obtained:
[1] = Quantitative High-Throughput drug screen in 47 multiple myeloma cell lines against the NCATS MIPE library collection: OCIMY1_PLB cell viability assay (AID 1918979); details: OCI-MY1 myeloma viability, CellTiter-Glo ATP, 48 h; at 45.8 µM (top of the series);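 further: 100% = DMSO-only wells and 0% = cell-free media-only wells; nearly all actives have a fitted effect of over 35% in size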
From the text: (§1) PI: Beverly A. Mock Ph.D.
(§2) Laboratory of Cancer Biology and Genetics,
(§3) Center for Cancer Research, National Cancer Institute,
(§4) National Institute of Health, Bethesda, Maryland
(§5) Drug resistance and disease progression are common in multiple myeloma (MM) patients, underscoring the need for new therapeutic combinations. […] We hypothesized that effective combinations would reduce MYC expression and enhance p16 activity. […] These preclinical data identify potentially useful drug combinations for evaluation in drug-resistant MM and reveal potential mechanisms of combined drug sensitivity.
(§6) Described herein is the primary MIPE qHTS used to cherrypick compounds. Validated compounds were then further tested for potential synergistic activiy.
[1] […]
(§7) 5; Detector; 425V; Luminescence; Viewlux PerkinElmer. […]
(§8) 1. […] Briefly, the corresponding myeloma cell lines were screened in 1,536-well plates with 500 cells, 5-uL per well for inhibition of cell viability (assessed by measuring ATP levels with CellTiterGlo). […]
(§9) 5. Signal was measured as median relative luminescence units on a ViewLux (PerkinElmer) multiplate reader. […]

[2] = Quantitative High-Throughput drug screen in 47 multiple myeloma cell lines against the NCATS MIPE library collection: MM1S_ATCC cell viability assay (AID 1918980); details: MM1S myeloma viability, CellTiter-Glo ATP luminescence, 48 h; at 45.8 µM (top of the series);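 further: 100% = wells with DMSO only and 0% = wells with media only; nearly all actives have a fitted effect of over 45% in size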
From the text: as §1, §2, §3, §4, §5, §6
[1] […]
as §7, §8, §9

[3] = Quantitative High-Throughput drug screen in 47 multiple myeloma cell lines against the NCATS MIPE library collection: MM1R_ATCC cell viability assay (AID 1918981); details: MM1R multiple myeloma cells, CellTiter-Glo viability, 48 h; at 45.8 µM (top of the series); further: nearly all actives have a fitted effect of over 35% in size
Summary of the method: (§10)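 ATP-based luminescence (CellTiter-Glo, 5 min RT incubation) quantified surviving cells following two days' treatment with MIPE 4.0 agents at 37 °C, 5% CO2.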

[4] = Quantitative High-Throughput drug screen in 47 multiple myeloma cell lines against the NCATS MIPE library collection: LP1_DSMZ cell viability assay (AID 1918982); details: LP1 myeloma viability, CellTiter-Glo ATP luminescence, 48 h; at 45.8 µM (top of the series); further: nearly all actives have a fitted effect of over 35% in size
From the text: as §1, §2, §3, §4, §5, §6
[1] […]
as §7, §8, §9

[5] = Quantitative High-Throughput drug screen in 47 multiple myeloma cell lines against the NCATS MIPE library collection: KMS34_JCRB cell viability assay (AID 1918985); details: KMS34 myeloma viability, CellTiter-Glo ATP luminescence, 48 h; at 45.8 µM (top of the series);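 further: 100% = DMSO-only wells and 0% = media-only wells; nearly all actives have a fitted effect of over 40% in size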
Summary of the method: as §10

[6] = Quantitative High-Throughput drug screen in 47 multiple myeloma cell lines against the NCATS MIPE library collection: OCIMY7_PLB cell viability assay (AID 1918987); details: OCI-MY7 myeloma viability, CellTiter-Glo ATP, 48 h; at 45.8 µM (top of the series); further: nearly all actives have a fitted effect of over 65% in size
Summary of the method: as §10

[7] = Quantitative High-Throughput drug screen in 47 multiple myeloma cell lines against the NCATS MIPE library collection: OCIMY5_PLB cell viability assay (AID 1918988); details: OCI-MY5 myeloma viability, ATP luminescence, 48 h; at 45.8 µM (top of the series);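 further: 100% = DMSO-treated wells and 0% = wells with media alone; nearly all actives have a fitted effect of over 65% in size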
From the text: as §1, §2, §3, §4, §5, §6
[1] […]
as §7, §8, §9

[8] = Quantitative High-Throughput drug screen in 47 multiple myeloma cell lines against the NCATS MIPE library collection: OPM1_PLB cell viability assay (AID 1918989); details: CellTiter-Glo, 48 h; at 45.8 µM (top of the series);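 further: 100% = DMSO-only wells and 0% = media-only wells; nearly all actives have a fitted effect of over 40% in size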
Summary of the method: as §10

[9] = Quantitative High-Throughput drug screen in 47 multiple myeloma cell lines against the NCATS MIPE library collection: SKMM1_PLB cell viability assay (AID 1919863); details: SKMM1 myeloma viability, CellTiter-Glo ATP, 48 h; active compounds read low; further: nearly all actives have a fitted effect of over 35% in size
From the text: as §1, §2, §3, §4, §5, §6
[1] […]
as §7, §8, §9

[10] = Quantitative High-Throughput drug screen in 47 multiple myeloma cell lines against the NCATS MIPE library collection: U266_ATCC cell viability assay (AID 1919864); details: U266 myeloma viability, CellTiter-Glo ATP luminescence, 48 h; at 45.8 µM (top of the series)
From the text: as §1, §2, §3, §4, §5, §6
[1] […]
as §7, §8, §9

CCOC(=O)C(=O)CBr
inactive: viability [1] 130% | viability (% of control) [2] 130% | viability (% of control) [3] 99.5% | viability (% of control) [4] 98.7% | viability, percent of control [5] 113% | viability (% of DMSO) [6] 97.3% | viability, % of control [7] 150% | viability (% of control) [8] 103% | viability [9] 127% | viability (% of DMSO control) [10] 122%
